Test system: fresh cells
Assay: Tests in cell cultures: cells doped with nascent HCG, cancerous cell growth
Assay type: cell-based
Conditions: nascent HCG from early embryonic states of mamifers

In the case of “HCG: Human Chorionic Gonadotropin; nascent HCG from early embryonic states, used to dope cell cultures”, the cancerous cell growth was “promotes cancerous cell growth”.
